Antibody variant affinities, Ab-95 light chain, assay 2

Data: MIT Lincoln Laboratory AlphaSeq set, Engelhart et al. 2022, doi:10.1038/s41597-022-01779-4, as distributed in FLAb.

Antigen: PDVDLGDISGINAS, a 14-residue peptide of the SARS-CoV-2 spike HR2 region.

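Variants in AAYL52 differ from the parent at up to three CDR positions; double and triple changes were sampled at random. Affinity was read by AlphaSeq, a pooled yeast mating assay with surface-displayed partners. After mating in shaken culture at 30 °C for 16 h, diploids were selected and their barcode pairs sequenced. Read counts were normalised to the haploid input and turned into Kd by a linear fit to BCL2-family pairs of known affinity, for each replicate. Each pool was mated in three replicate cultures.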

Each scFv is VH, the linker GGGGSGGGGSGGGGS, VL, as in the parent Ab-95, and differs from it in the CDRs of the light chain only.
VH: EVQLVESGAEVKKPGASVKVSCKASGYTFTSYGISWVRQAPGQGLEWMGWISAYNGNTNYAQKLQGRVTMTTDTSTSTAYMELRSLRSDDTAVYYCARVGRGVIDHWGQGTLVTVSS
VL: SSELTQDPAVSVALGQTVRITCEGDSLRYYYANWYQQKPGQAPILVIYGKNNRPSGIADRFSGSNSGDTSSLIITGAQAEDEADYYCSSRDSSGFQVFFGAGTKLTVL

Substitutions are numbered in sequence along the VL above, starting at 1 (not Kabat). Every variant below is changed at N51 of the VL (sequential numbering). Values are apparent Kd, the geometric mean of the replicates that gave a signal; lower means stronger binding. "nd" marks a missing value. The strain was present, yet no cells mated with the target were sequenced in any replicate, which points to weak or no binding.

The variant D25G N51E S93W showed 59 µM (1 of 3 replicates). With Y30D A32V N51W the result was 3.7 µM (3 of 3 replicates). With N51Q R53Q S88V the result was 8.2 µM (2 of 3 replicates). The variant A32S N51D D91P gave 770 nM (3 of 3 replicates). For G49R N51W S55E, the assay gave 2.4 µM (1 of 3 replicates). With N33H N51A F95V the result was 66 µM (2 of 3 replicates). The variant N51Q S89I F98R showed 8.1 µM (1 of 3 replicates). The variant G24N N51S Q96W gave 1.4 µM (1 of 3 replicates). The variant E23K N51A D91M showed 8.7 µM (2 of 3 replicates).

The variant N51P S55I S93E showed 4.8 µM (3 of 3 replicates). The variant Y29Q N51I P54Q showed 420 nM (3 of 3 replicates). With N51L N52K R90D the result was 580 nM (1 of 3 replicates). For Y30M N51T S92M, the assay gave 540 nM (3 of 3 replicates). For E23F N51Q, the assay gave 1.3 µM (3 of 3 replicates). The variant N33L N51V S88T showed 17 µM (1 of 3 replicates). With E23V N51Q V97A the result was 230 nM (1 of 3 replicates). The variant G49E N51C S92G showed 5.4 µM (1 of 3 replicates). The variant N51R S92A S93T showed 2.5 µM (2 of 3 replicates).

With D25P N51T P54D the result was nd (0 of 3 replicates). With G49M N51H R90I the result was 6.3 µM (1 of 3 replicates). With R28A N51P the result was 2.4 µM (2 of 3 replicates). For N51H D91R V97E, the assay gave 15 µM (1 of 3 replicates). With S26N N51W F98W the result was 3.5 µM (3 of 3 replicates). The variant R28Y N51V F95S gave 7.6 µM (1 of 3 replicates). For N51H S88W, the assay gave 1.5 µM (3 of 3 replicates). With G24I Y29M N51C the result was 6.6 µM (1 of 3 replicates). With N51D the result was 260 nM (3 of 3 replicates).

The variant S26Q N51S V97N gave 11 µM (2 of 3 replicates). The variant N51K N52M F95M showed 840 nM (3 of 3 replicates). For R28E N33K N51Q, the assay gave 3.2 µM (1 of 3 replicates).

4 of these entries, quoted again:

changes	Kd	seen in
Y29Q N51I P54Q	420 nM	3/3
G49M N51H R90I	6.3 µM	1/3
N33L N51V S88T	17 µM	1/3
Y30D A32V N51W	3.7 µM	3/3

For reference, the parent read 200 nM as the reference entry and 180 nM as a member of this library. Background: pairings of library AAYL52 with three empty control strains gave a value in 28% of cases (median 8.2 µM, 5th percentile 800 nM). Values in that range, when seen in few replicates, are hard to tell from nonspecific mating.